Publication PMC7265341 (2020)
“And” between values parts separate entries of the source, which are not always exact repeats. Equal entries are not always repeated. Where two headings read alike, the source gives them in different places.

The chains behind the UniProt entries cited, without tags or fusion partners. Where a name states a change or a piece, a line headed by the entry shows the natural chain unless it says otherwise.
UniProt Q96Q40: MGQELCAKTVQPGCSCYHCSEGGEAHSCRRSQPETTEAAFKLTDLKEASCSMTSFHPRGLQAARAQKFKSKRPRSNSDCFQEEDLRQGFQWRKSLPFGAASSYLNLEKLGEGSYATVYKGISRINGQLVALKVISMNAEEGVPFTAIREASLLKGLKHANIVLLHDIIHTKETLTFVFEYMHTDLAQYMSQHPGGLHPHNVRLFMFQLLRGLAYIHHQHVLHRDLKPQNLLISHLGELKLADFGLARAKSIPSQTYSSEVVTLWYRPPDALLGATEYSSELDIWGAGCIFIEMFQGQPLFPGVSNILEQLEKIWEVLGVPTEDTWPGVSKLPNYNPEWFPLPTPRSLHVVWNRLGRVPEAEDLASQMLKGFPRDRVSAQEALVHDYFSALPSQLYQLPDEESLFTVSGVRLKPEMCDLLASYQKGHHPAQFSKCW
UniProt Q00526: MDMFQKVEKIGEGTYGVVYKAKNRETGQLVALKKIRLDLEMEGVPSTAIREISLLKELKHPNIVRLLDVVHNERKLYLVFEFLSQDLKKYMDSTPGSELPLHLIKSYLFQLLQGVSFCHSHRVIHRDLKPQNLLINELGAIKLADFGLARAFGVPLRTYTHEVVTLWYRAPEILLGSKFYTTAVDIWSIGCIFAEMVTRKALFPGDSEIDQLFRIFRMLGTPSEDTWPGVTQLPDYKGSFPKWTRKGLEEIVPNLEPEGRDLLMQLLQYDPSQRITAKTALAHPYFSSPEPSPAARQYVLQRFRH
UniProt P11802: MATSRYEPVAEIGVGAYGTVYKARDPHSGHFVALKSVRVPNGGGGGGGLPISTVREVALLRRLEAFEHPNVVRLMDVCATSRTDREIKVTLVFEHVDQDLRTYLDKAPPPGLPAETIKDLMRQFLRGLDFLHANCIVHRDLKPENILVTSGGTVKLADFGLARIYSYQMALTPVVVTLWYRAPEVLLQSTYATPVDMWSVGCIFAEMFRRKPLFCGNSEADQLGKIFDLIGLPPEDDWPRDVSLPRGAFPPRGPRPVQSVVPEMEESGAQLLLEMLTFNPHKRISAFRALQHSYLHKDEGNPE

Tests used:
CDK15/Cyclin Y = CDK15/Cyclin Y (Homo sapiens, UniProt Q96Q40); assay: NanoBRET live-cell target engagement, NanoLuc-CDK15/Cyclin Y in HEK-293; details: for IC50: IC50 (nM), CDK15/Y; for inhibition at 10 µM: read-out: Inhibition at 10µM (%), CDK15/Y
CDK3/Cyclin E1 = CDK3/Cyclin E1 (Homo sapiens, UniProt Q00526); assay: NanoBRET live-cell target engagement, CDK3-NanoLuc/Cyclin E1 in HEK-293; details: read-out: Inhibition at 10µM (%), CDK3/E1
CDK4/Cyclin D1 = CDK4/Cyclin D1 (Homo sapiens, UniProt P11802); assay: NanoBRET live-cell target engagement, NanoLuc-CDK4/Cyclin D1 in HEK-293

SMILES | IC50 (CDK15/Cyclin Y; average (± SEM where n=3)) | IC50 (CDK15/Cyclin Y; experiment 1) | IC50 (CDK15/Cyclin Y; experiment 2) | inhibition at 10 µM (CDK15/Cyclin Y; average) | inhibition at 10 µM (CDK15/Cyclin Y; experiment 2) | inhibition at 10 µM (CDK3/Cyclin E1; average) | inhibition at 10 µM (CDK3/Cyclin E1; experiment 1) | inhibition at 10 µM (CDK3/Cyclin E1; experiment 2) | Inhibition at 10µM (%) (CDK4/Cyclin D1; 10 µM) | inhibition at 10 µM (CDK4/Cyclin D1; read-out: Inhibition at 10µM (%))
CCc1cnn2c(NCc3ccc[n+]([O-])c3)cc(N3CCCC[C@H]3CCO)nc12 [Dinaciclib] | 150 nM | 167 nM | 130 nM | 94% | 93.5% | – | – | – | – | –
NS(=O)(=O)c1ccc(Nc2nc(OCC3CCCCC3)c3nc[nH]c3n2)cc1 [NU6102] | – | – | – | – | – | 85.4% | 75.9% | 94.8% | 82.7% and 86.8% | 90.9%
